“And” between values parts separate entries of the source, which are not always exact repeats. Equal entries are not always repeated. Where two headings read alike, the source gives them in different places.
Biological target: T1, Drosophila OR98a (Drosophila melanogaster, UniProt Q9VAZ3)
T1 construct: expressed in transfected cells
T1 sequence (Q9VAZ3 1-397): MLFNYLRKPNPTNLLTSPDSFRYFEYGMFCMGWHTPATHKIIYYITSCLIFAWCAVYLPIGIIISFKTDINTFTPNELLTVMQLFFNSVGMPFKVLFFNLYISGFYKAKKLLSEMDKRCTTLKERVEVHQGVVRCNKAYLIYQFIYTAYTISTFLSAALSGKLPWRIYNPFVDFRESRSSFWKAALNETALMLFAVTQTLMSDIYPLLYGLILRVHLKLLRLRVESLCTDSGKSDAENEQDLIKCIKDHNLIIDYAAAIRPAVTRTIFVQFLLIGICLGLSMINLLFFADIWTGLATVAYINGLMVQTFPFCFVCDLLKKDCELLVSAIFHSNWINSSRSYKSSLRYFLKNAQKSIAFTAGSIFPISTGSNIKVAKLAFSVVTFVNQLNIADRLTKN
T1 sequence (Q9VNB5 1-486 partner): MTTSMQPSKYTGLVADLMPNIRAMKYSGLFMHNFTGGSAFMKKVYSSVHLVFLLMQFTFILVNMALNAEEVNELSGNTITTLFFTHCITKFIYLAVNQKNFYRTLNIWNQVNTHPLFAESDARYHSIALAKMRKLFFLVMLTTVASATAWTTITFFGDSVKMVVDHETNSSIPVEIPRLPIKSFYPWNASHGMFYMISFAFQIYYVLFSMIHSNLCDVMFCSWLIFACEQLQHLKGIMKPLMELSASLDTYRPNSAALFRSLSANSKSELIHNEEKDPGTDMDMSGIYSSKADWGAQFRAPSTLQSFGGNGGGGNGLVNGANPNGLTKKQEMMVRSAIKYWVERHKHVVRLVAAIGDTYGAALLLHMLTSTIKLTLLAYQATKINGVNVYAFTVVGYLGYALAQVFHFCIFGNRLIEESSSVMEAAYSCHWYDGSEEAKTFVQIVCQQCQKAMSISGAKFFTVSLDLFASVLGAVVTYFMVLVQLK
Test: Calcium ion fluorescence (GCaMP6) assay, OR98a stable HEK293 cell line
Format: cell-based
Conditions: for DF norm AVERAGE OR98a: normalized fluorescence change, values below 0.05 threshold given as 0
Method: These VUAA1 normalized ∆F values were used to compare the different receptors and ligands.
The concentration-dependent effect of the reference ligands on their cognate cell lines was examined in more detail. Twelve different ligand concentrations were measured on each cell line in an overall 0.01 μM to 100 μM concentration range with 5 repetitions with three technical replicates each time.
Twelve thousand to 18,000 cells were plated into each well of a black wall, transparent bottom 384-well microplate (Greiner) 48 h or 72 h before the measurements and were simultaneously treated with 1 μg/mL doxycycline. […] The plate has 24 columns, thus we could record responses in up to eight different cell lines in each plate. On the day of the experiment, the growth medium was replaced with 20 µL assay buffer/well (140 mM NaCl, 5 mM KCl, 2 mM CaCl2, 1 mM MgCl2, 5 mM HEPES-Na, 20 mM glucose, pH 7.3, 340 mOsm). […] Baseline fluorescence (F0) was recorded for 5 s, after which 7 µL VOC buffer (140 mM NaCl, 5 mM KCl, 2 mM CaCl2, 1 mM MgCl2, 5 mM HEPES-Na, 31 mM glucose, 0.1% DMSO, pH 7.3, 340 mOsm) was injected into each well in one row and the fluorescence response was recorded for an additional 30 s, at a rate of one read/sec. VOC solutions (VOC buffer with 4× concentration of the final measured VOC concentration, 9 µL/well was injected) were measured on the same wells in a second round with the same protocol. Each individual concentration of a specific VOC sample was recorded in three wells for the same cell line on the same microplate. The raw data were exported in xls file format, F0 and FMAX values, and the fluorescence intensity changes (∆F) were calculated in Excel (Microsoft) (Supplementary file Data summary.xlsx) using the following equation: ΔF=FMAX-F0/F0 (see also Fig. 1C). On each plate, we recorded the response of each cell line to 50 µM VUAA1. The average of these ∆F values of each cell line were used to calculate the VUAA1-normalized values for the rest of the plate, by dividing VOC response ∆F values by the average VUAA1 response ∆F value of the corresponding OR cell line. Each VOC-OR combination was measured three times as technical replicates. […] The average of these replicates were used as one ∆F and VUAA1-normalized ∆F in the following analysis.
In the next rows we tested the reference VOCs (or other VOCs known to activate the corresponding cell lines), in order to test if all cell lines are responsive. The remaining rows were used to test VOCs with unknown effect.
The recorded FMAX, F0, ∆F, VUAA1-normalized ∆F values, as well as the OR name, the name of the tested sample, and the final concentration for each well were copied into supplementary file Data summary.xlsx, that was used to summarize all the plates recorded. Here, the averages of the measurements were calculated for each receptor-VOC-concentration combination.

[1] = HEK293, read-out: Average response
[2] = HEK293, read-out: OR98a Average response (VUAA1-normalized)
[3] = HEK293, read-out: OR98a response (VUAA1-normalized response)
[4] = VOC concentration 0.3 (unit not given)
[5] = VOC concentration 0.6 (unit not given)
[6] = VOC concentration 1.25 (unit not given)
[7] = VOC concentration 2.5 (unit not given)
[8] = VOC concentration 5 (unit not given)
[9] = VOC concentration 10 (unit not given)
[10] = VOC concentration 20 (unit not given)
[11] = VOC concentration 40 (unit not given)
[12] = VOC concentration 60 (unit not given)
[13] = VOC concentration 80 (unit not given)
[14] = VOC concentration 100 (unit not given)

What does the source list for `CC(=O)CCC=C(C)C` [6-methyl-5-hepten-2-one]?
EC50 (AVERAGE EC50, from average LOG EC50, N 5): 2060 nM; EC50 (EC50 (fitted parameter), individual biological replicates): 1940 nM and 2500 nM and 3520 nM and 1560 nM and 1410 nM; EC50 (EC50, AVERAGE, arithmetic average of 5 replicate EC50): 2180 nM; EC50 (EC50, FITTED AVERAGE CURVE, fit to the average curve): 2220 nM; EC50 (EC50, OR98a cell line, fitted Hill equation, Hill coefficient constrained to 1, maximal response max 1): 2060 nM; activation at 1 µM [1]: 10%; activation at 10 µM [1]: 27%; activation at 100 µM [1]: 44%; activation at 1 µM [2]: 10%; activation at 10 µM [2]: 27%; activation at 100 µM [2]: 44%; activation at 1 µM [3]: 10%; activation at 10 µM [3]: 27%; activation at 100 µM [3]: 44%; Emax (HEK293, read-out: VUAA1 normalized MAX response): 58%; EC50 (LOG EC50 (fitted parameter), individual biological replicates, OR98a D-R sheet): 1940 nM and 2500 nM and 3520 nM and 1560 nM and 1410 nM; EC50 (LOG EC50, AVERAGE, average of 5 biological replicates): 2060 nM; response, AVERAGE [4]: 0.1102; response, biological replicates [4]: 0.1554 and 0 and 0.1737 and 0.1116; response, AVERAGE [5]: 0.09308; response, biological replicates [5]: 0.06557 and 0.1732 and 0 and 0.1276 and 0.09906; response, AVERAGE [6]: 0.2409; response, biological replicates [6]: 0.2537 and 0.1694 and 0.3406 and 0.1997; response, AVERAGE [7]: 0.2802; response, biological replicates [7]: 0.2818 and 0.3683 and 0.1929 and 0.2904 and 0.2678; response, AVERAGE [8]: 0.4033; response, biological replicates [8]: 0.524 and 0.2746 and 0.428 and 0.3866; response, AVERAGE [9]: 0.4921; response, biological replicates [9]: 0.5182 and 0.6592 and 0.3658 and 0.4172 and 0.5001; response, AVERAGE [10]: 0.6119; response, biological replicates [10]: 0.4846 and 0.7851 and 0.5536 and 0.772 and 0.4641; response, AVERAGE [11]: 0.5706; response, biological replicates [11]: 0.3973 and 0.8542 and 0.4845 and 0.6219 and 0.4952; response, AVERAGE [12]: 0.6266; response, biological replicates [12]: 0.7868 and 0.5652 and 0.7445 and 0.4099; response, AVERAGE [13]: 0.4565; response, biological replicates [13]: 0.4942 and 0.7192 and 0.3421 and 0.3894 and 0.3373; response, AVERAGE [14]: 0.5389; response, biological replicates [14]: 0.7398 and 0.4357 and 0.5086 and 0.4715; AVERAGE MAX (average of 5 biological replicates): 0.5775; DF norm AVERAGE OR98a (concentration 1): 0.1044; DF norm AVERAGE OR98a (concentration 10): 0.2747; DF norm AVERAGE OR98a (concentration 100): 0.4431; MAX, FITTED AVERAGE CURVE (fit to the average curve): 0.5999; MAX (fitted parameter) (individual biological replicates): 0.5073 and 0.814 and 0.5036 and 0.5994 and 0.4633

Source: publication PMC10709440, “High-throughput ligand profile characterization in novel cell lines expressing seven heterologous insect olfactory receptors for the detection of volatile plant biomarkers” (Scientific Reports, 2023)
